Test [1] is filed under the species Canis familiaris. Nature of the test: In vitro effect on methemoglobin formation specified at 5 mM concentration.
The species named for test [2] is Canis familiaris. Nature of the test: In vitro effect on methemoglobin formation specified at 1 mM concentration.
The species named for test [3] is Canis familiaris. Put plainly: In vitro effect on methemoglobin formation at specified 5 mM concentration.
For test [4], the species on record is Canis familiaris. Nature of the test: In vitro effect on methemoglobin formation specified at 250 uM concentration.

`O=[N+]([O-])c1cc2c(NCCO)ccnc2cc1Cl`: the Methemoglobin in the test filed under Canis familiaris [1] came out at 21.9%; in the test filed under Canis familiaris [2], 2.7%.

`O=[N+]([O-])c1ccc(NNc2ccnc3cc(Cl)ccc23)cc1`: the Methemoglobin in the test listed under Canis familiaris [1] amounted to 82.6%; in the test filed under Canis familiaris [2], 9.3%.

Consider `Clc1ccc2c(NCCN3CCN(c4ccccc4)CC3)ccnc2c1`, for which the Methemoglobin in the test filed under Canis familiaris [1] is 6.15%.

The compound `Clc1ccc2c(NCc3ccco3)ccnc2c1` yielded a Methemoglobin in the test listed under Canis familiaris [1] of 22.2%.

On to `O=[N+]([O-])c1ccc(OCCNc2ccnc3cc(Cl)ccc23)cc1`, for which, in the test listed under Canis familiaris [1], the Methemoglobin was 11.2%.

As to `CC(=O)c1ccc(Nc2ccnc3cc(Cl)c([N+](=O)[O-])cc23)c([N+](=O)[O-])c1`, the Methemoglobin in the test filed under Canis familiaris [1] is 12.8%.

`COc1cc(NC(C)CCCN)c2ncccc2c1` (stereo unspecified): the Methemoglobin in the test filed under Canis familiaris [3] turned out to be 89.9%.

`O=N[O-].[Na+]`: the figures for the Methemoglobin in the test filed under Canis familiaris [2] and in the test listed under Canis familiaris [4] were 100% and 19.2%, respectively.

(Values after ChEMBL document CHEMBL1159180, “Synthesis of 7-chloro-4-substituted aminoquinolines and their in vitro ability to produce methemoglobin in canine hemolysate” (1997).)
